Earlier results on one substance are cited in patent US11964021B2, “Bacterially derived, intact minicells for delivery of therapeutic agents to brain tumors” (EnGeneIC Molecular Delivery Pty Ltd, priority 2011, dated 2024).

The conditions of the series: kinetics, FIG. 2A of MacDiarmid et al. Cancer Cell (2007); cited from earlier work.

With Fluoro-paclitaxel [flouro-paclitaxel], the “leakage of drug out of intact minicells once packaged” value is given as “did not leak out”.
